To fix the notation:
T1: 14-3-3ε:γ heterodimer (UniProt P62258 1-255; P61981 1-247)
T1 construct: 14-3-3ε (YWHAE), as the chain of m2; 14-3-3γ (YWHAG), as the chain of m3; Held by GST capture in SPR; source: E. coli, each purified; not shown: GST, N-terminal, kept; copies: 1 + 1
T1 sequence (looked up) 1: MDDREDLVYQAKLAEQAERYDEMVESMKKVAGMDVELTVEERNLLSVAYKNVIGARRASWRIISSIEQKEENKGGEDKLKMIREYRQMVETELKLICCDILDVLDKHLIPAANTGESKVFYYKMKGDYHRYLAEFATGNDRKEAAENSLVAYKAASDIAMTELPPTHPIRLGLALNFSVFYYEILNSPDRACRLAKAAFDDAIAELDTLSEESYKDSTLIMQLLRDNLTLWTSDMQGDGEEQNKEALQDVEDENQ
T1 sequence (looked up) 2: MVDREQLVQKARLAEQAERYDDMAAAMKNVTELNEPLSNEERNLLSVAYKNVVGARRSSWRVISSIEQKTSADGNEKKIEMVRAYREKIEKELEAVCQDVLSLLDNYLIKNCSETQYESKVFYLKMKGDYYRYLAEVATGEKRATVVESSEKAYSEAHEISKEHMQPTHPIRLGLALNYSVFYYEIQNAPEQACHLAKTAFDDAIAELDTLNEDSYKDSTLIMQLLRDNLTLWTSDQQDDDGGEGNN

T2: 14-3-3ε:ζ heterodimer (UniProt P62258 1-255; P63104 1-245)
T2 construct: 14-3-3ε (YWHAE), as the chain of m2; 14-3-3ζ (YWHAZ), as the chain of m4; Held by GST capture in SPR; thrombin-cleaved 14-3-3 in the activity assays; also called 14-3-3ζ:ε; source: E. coli, each purified; not shown: GST, N-terminal, kept; copies: 1 + 1
T2 sequence (looked up) 1: T1 sequence (looked up) 1
T2 sequence (looked up) 2: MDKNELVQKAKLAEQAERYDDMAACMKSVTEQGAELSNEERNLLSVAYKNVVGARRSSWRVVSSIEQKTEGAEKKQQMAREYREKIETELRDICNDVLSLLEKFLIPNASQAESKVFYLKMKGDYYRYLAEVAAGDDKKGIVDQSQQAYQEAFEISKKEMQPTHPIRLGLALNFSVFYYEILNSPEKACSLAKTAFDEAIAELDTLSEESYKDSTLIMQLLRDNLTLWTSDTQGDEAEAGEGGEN

T3: 14-3-3ε:η heterodimer (UniProt P62258 1-255; Q04917 1-246)
T3 construct: 14-3-3ε (YWHAE), as the chain of m2; 14-3-3η (YWHAH), as the chain of m5; Held by GST capture in SPR; source: E. coli, each purified; not shown: GST, N-terminal, kept; copies: 1 + 1
T3 sequence (looked up) 1: T1 sequence (looked up) 1
T3 sequence (looked up) 2: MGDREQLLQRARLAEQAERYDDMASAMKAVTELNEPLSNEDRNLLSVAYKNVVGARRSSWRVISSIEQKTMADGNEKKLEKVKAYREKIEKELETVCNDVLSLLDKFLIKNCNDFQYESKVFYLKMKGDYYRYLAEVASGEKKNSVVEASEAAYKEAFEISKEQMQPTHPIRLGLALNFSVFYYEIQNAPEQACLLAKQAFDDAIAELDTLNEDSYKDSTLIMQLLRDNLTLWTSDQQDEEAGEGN

T4: 14-3-3ε:β heterodimer (UniProt P62258 1-255; P31946 1-246)
T4 construct: 14-3-3ε (YWHAE), as the chain of m2; 14-3-3β (YWHAB), as the chain of m6; Held by GST capture in SPR; source: E. coli, each purified; not shown: GST, N-terminal, kept; copies: 1 + 1
T4 sequence (looked up) 1: T1 sequence (looked up) 1
T4 sequence (looked up) 2: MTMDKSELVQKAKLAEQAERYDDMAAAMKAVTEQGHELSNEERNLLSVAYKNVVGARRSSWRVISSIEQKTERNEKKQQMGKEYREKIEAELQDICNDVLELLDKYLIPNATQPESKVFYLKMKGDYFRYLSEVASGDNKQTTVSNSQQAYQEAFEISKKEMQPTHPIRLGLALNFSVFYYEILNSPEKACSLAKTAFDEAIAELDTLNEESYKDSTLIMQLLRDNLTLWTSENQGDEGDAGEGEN

B1: 14-3-3ε:ε homodimer (His-tagged) (natural protein, UniProt P62258 1-255, looked up)
chain: T1 sequence (looked up) 1
notes: 14-3-3ε (YWHAE); Plasmid from S.O. Døskeland; Immobilised by direct amine coupling in SPR; also called 14-3-3Ɛ; source: E. coli, pET11, purified (Ni-NTA)
B2: GST-14-3-3β:β homodimer (natural protein, UniProt P31946 1-246, looked up)
chain: T4 sequence (looked up) 2
B3: GST-14-3-3γ:γ homodimer (natural protein, UniProt P61981 1-247, looked up)
chain: T1 sequence (looked up) 2
B4: GST-14-3-3η:η homodimer (natural protein, UniProt Q04917 1-246, looked up)
chain: T3 sequence (looked up) 2
B5: GST-14-3-3ζ:ζ homodimer (natural protein, UniProt P63104 1-245, looked up)
chain: T2 sequence (looked up) 2
B6: Ser19-phosphorylated human tyrosine hydroxylase 1 (enzyme)
chain: not shown
modifications: phosphoserine at 19 (by PRAK; 0.5 phosphates per subunit in the SPR experiments, 0.2-0.8 overall)

Common to all, as to conditions: both partners purified
Assay [1] addresses B6. The experiment in a line: SPR; Biacore 3000; 14-3-3ε:ε immobilised by direct amine coupling (10 mM Na-acetate, pH 5.4), TH-pS19 flowed over; 25 °C, HBS-P buffer, 30 μl/min; Kd calculated as kd/ka.
The target of assay [2] is B6. The assay is described as follows: SPR; Biacore 3000; GST-14-3-3 dimers held by GST capture, TH-pS19 flowed over; 25 °C, HBS-P buffer, 30 μl/min; Kd calculated as kd/ka.
In another assay the target is T1, 14-3-3ε:γ heterodimer. The assay is described as above.
Another assay deals with T2, 14-3-3ε:ζ heterodimer. Described as above.
The assay “GST-14-3-3β:β homodimer” has as its target B2. The description is as above.
The target of a further assay is T3, 14-3-3ε:η heterodimer. The description is as above.
The target in the assay “GST-14-3-3η:η homodimer” is B4. The assay is described as above.
The target in the assay “GST-14-3-3ζ:ζ homodimer” is B5. The assay is described as above.
A further assay has as its target T4, 14-3-3ε:β heterodimer. The description is as above.
The assay “GST-14-3-3γ:γ homodimer” has as its target B3. The assay is described as above.

The values below come from PMC4833811 (Amino Acids, 2016).

The Kd is the equilibrium constant for the complex coming apart. What is called koff is the first-order rate constant of dissociation. Usually kon stands for a measure of how fast the partners come together. In the case of B1, in assay [1], the Kd is 2.8 nM, the koff is 0.00072 s⁻¹ and the kon was 260000 M⁻¹ s⁻¹.
As to B2, in assay [2], the Kd is 1.4 nM, the dissociation rate constant (koff) is 0.0003 s⁻¹ and the kon was 220000 M⁻¹ s⁻¹.
For the molecule B3, in [2], the Kd was 3 nM, the koff is 0.00094 s⁻¹ and the kon is 310000 M⁻¹ s⁻¹.
For B4, in assay [2], the Kd was 1.6 nM, the off-rate constant (koff) is 0.00044 s⁻¹ and the kon was 270000 M⁻¹ s⁻¹.
For B5, in that order: 2.9 nM, 0.00038 s⁻¹ and 130000 M⁻¹ s⁻¹.
Regarding B6, the Kd with 14-3-3ε:γ heterodimer is 2.5 nM; in the assay with 14-3-3ε:ζ heterodimer it was 3.8 nM; with 14-3-3ε:η heterodimer, 1.7 nM; in the assay with 14-3-3ε:β heterodimer it was 2.5 nM. Also, the koff is 0.0005 s⁻¹ with 14-3-3ε:γ heterodimer, 0.00065 s⁻¹ with 14-3-3ε:ζ heterodimer, 0.00048 s⁻¹ in the assay with 14-3-3ε:η heterodimer and 0.0005 s⁻¹ with 14-3-3ε:β heterodimer. The kon is 200000 M⁻¹ s⁻¹ with 14-3-3ε:γ heterodimer, 170000 M⁻¹ s⁻¹ with 14-3-3ε:ζ heterodimer, 290000 M⁻¹ s⁻¹ with 14-3-3ε:η heterodimer and 200000 M⁻¹ s⁻¹ with 14-3-3ε:β heterodimer. The “t 0.5 (dissociation half time)” value with 14-3-3ε:γ heterodimer was 23 min; with 14-3-3ε:ζ heterodimer, 18 min; in the assay with GST-14-3-3β:β homodimer it was 38 min; with 14-3-3ε:η heterodimer it was 24 min; with GST-14-3-3η:η homodimer, 26 min; with GST-14-3-3ζ:ζ homodimer, 30 min. Besides, the “t 0.5 (dissociation half time)” value with 14-3-3ε:β heterodimer was 23 min; with GST-14-3-3γ:γ homodimer, 12 min.
